Source: patent US20120196795A1
Like-named read-outs stand apart in the source and are kept apart here.

Columns and labels:
Assay in all cases: cell-based or functional assay
[1] = biological target: GLP-1 receptor (UniProt P32301)
[2] = biological target: GLP-1 receptor (UniProt P32301); remark: listed apart in the source
[3] = biological target: GLP-1 receptor (UniProt P32301); remark: listed apart in the source

Substance “PB-105 (Exendin-4, Cys substituted at position 39) (peptide)” has an EC50 of increase of intracellular cAMP in PC12 cells [1] of 1.3 nM, a maximum of increased cAMP (Emax) in PC12 cells (pmol/100 µg (protein)) [1] of 104 and an EC50 of increase of intracellular cAMP in PC12 cells [2] of 2.5 nM. For the same substance, the Log EC50 of increase of intracellular cAMP in PC12 cells [2] was -8.61 log M, the maximum of increased cAMP (Emax) in PC12 cells (pmol/100 µg (protein)) [2] was 129 and the EC50 of increase of intracellular cAMP in PC12 cells [3] was 2.7 nM.
